Among the data in patent US11912703B2, “6-azaindole compounds” (BRISTOL-MYERS SQUIBB COMPANY, priority 2017, dated 2024) are IC50 values, retold here.

Amino acid sequences for entries named in this document (tags omitted). Residues count along the entry.
UniProt Q9NYK1, 27-1049 limits assumed: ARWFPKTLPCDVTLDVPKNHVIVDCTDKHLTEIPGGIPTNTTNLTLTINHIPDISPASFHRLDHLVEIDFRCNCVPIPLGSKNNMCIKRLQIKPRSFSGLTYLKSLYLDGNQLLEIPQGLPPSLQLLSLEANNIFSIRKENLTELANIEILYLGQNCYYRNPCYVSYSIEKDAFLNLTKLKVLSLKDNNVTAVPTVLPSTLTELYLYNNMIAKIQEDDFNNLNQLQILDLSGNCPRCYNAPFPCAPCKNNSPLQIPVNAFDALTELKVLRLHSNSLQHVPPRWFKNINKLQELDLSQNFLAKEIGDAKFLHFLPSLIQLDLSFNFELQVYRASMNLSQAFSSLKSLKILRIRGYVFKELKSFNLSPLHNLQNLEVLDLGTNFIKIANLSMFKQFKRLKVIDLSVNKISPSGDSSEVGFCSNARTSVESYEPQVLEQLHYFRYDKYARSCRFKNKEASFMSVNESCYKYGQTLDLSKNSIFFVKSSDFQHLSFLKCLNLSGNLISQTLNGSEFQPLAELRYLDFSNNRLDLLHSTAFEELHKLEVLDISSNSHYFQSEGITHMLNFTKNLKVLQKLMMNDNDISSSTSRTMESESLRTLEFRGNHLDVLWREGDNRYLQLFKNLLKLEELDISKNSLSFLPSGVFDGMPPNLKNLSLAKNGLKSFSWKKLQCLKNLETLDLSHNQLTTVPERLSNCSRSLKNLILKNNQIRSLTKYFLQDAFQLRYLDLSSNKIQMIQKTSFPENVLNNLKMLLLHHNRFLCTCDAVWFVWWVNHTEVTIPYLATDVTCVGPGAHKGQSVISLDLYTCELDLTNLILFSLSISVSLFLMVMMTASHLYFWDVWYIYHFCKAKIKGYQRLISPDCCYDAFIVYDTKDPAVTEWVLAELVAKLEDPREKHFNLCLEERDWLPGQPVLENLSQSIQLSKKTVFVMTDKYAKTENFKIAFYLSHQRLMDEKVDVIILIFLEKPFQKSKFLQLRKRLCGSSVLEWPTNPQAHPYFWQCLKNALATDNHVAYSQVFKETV
UniProt Q9NR97, 27-1041 limits assumed: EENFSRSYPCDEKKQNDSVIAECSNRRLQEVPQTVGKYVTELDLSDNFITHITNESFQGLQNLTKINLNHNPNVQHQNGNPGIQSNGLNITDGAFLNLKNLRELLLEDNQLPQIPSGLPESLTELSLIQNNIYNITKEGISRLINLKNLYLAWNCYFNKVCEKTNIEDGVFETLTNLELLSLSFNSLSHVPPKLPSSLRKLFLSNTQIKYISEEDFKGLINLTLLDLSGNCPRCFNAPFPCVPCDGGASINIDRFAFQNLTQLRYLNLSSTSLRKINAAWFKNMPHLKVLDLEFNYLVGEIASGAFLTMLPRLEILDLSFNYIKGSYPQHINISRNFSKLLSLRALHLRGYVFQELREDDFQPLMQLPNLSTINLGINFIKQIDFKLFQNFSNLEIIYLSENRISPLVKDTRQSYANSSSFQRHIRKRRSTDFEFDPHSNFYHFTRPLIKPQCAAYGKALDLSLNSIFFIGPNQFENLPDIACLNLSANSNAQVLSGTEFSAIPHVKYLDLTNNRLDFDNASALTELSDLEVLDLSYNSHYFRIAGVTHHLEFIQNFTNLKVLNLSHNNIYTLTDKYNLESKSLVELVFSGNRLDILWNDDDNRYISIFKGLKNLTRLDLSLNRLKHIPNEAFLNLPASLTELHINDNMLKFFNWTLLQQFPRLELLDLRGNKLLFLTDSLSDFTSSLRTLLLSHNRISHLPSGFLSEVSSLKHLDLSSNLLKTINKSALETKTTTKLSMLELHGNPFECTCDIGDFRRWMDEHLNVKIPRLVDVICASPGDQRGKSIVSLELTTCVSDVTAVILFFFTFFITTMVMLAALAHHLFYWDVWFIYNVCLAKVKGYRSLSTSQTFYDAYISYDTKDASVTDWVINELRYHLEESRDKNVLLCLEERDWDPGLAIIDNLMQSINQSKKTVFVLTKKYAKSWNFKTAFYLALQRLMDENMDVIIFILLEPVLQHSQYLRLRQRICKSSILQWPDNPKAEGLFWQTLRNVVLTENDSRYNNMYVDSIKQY
UniProt Q9NR96, 26-1032 limits assumed: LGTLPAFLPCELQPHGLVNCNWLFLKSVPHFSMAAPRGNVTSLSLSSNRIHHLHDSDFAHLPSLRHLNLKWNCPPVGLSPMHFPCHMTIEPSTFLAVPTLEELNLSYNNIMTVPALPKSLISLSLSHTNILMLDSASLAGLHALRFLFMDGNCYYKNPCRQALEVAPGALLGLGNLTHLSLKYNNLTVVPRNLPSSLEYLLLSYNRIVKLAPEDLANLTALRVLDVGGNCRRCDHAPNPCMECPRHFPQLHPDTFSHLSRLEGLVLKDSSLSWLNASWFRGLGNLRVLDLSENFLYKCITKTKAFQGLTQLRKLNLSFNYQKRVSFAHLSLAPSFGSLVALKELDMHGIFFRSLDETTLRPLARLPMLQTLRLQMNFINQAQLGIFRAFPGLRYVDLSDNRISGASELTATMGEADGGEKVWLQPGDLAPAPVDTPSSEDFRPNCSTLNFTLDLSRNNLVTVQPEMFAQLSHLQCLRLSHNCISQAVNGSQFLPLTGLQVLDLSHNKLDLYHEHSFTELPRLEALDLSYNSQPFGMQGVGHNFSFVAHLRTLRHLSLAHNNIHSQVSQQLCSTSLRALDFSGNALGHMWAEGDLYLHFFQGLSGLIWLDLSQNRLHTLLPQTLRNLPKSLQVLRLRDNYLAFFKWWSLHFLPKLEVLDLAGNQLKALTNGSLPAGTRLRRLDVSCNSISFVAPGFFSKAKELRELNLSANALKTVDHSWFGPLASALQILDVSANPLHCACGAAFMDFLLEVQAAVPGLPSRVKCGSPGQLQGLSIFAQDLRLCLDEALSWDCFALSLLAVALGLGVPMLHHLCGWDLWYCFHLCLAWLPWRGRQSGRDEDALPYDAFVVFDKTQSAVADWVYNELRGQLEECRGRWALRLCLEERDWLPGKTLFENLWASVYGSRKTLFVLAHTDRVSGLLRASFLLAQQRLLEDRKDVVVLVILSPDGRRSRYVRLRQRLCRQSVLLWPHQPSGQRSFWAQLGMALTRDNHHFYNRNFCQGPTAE

One assay concerns the target human TLR7 (Homo sapiens (Human), UniProt Q9NYK1). In words: TLR7 inhibition reporter assay (HEK-Blue SEAP). The class given is cell-based. As to conditions: read-out: TLR7 IC50, HEK-Blue cells overexpressing human TLR7, gardiquimod 7.5 μM stimulation. On the technique in general: A reporter such as luciferase makes a cellular process visible.
Another assay has as its target human TLR8 (Homo sapiens (Human), UniProt Q9NR97). In words: TLR8 inhibition reporter assay (HEK-Blue SEAP).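 Also: SEAP driven by IFN-β minimal promoter with five NF-κB and AP-1 sites, compounds tested 0.05 nM to 50 µM, 22 h incubation, inhibition relative to agonist plus DMSO wells.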 The following applies: read-out: TLR8 IC50, HEK-Blue cells overexpressing human TLR8, R848 15.9 μM stimulation.
Another assay has as its target human TLR9 (Homo sapiens (Human), UniProt Q9NR96). As to the kind of experiment: TLR9 inhibition reporter assay (HEK-Blue SEAP).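 Also: SEAP driven by IFN-β minimal promoter carrying five NF-κB and AP-1 sites, 22 h at 37 °C, compounds 0.05 nM–50 µM, inhibition scaled between agonist-plus-DMSO and reference-inhibitor wells.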 As to conditions: read-out: TLR9 IC50, HEK-Blue cells overexpressing human TLR9, ODN2006 5 nM stimulation.

In the case of `CCN(C)C1CCC(c2ncc3[nH]c(-c4cn5ncnc5c(C)c4C)c(C(C)C)c3c2C)CC1` (stereo not drawn) [Example 143], the IC50 on human TLR7 came to 0.02 µM; at human TLR8, 0.031 µM; on human TLR9, 1.4 µM.

Usually IC50 stands for the concentration that inhibits the measured activity by half.
